Values joined by “and” are separate entries in the source; they are usually repeats but may differ in a detail not shown here. Equal entries are not always repeated.

Protein sequences, listed by entry. Tags and fused reporters are not part of them. Residues count along the entry.
UniProt P31424, 21-1203: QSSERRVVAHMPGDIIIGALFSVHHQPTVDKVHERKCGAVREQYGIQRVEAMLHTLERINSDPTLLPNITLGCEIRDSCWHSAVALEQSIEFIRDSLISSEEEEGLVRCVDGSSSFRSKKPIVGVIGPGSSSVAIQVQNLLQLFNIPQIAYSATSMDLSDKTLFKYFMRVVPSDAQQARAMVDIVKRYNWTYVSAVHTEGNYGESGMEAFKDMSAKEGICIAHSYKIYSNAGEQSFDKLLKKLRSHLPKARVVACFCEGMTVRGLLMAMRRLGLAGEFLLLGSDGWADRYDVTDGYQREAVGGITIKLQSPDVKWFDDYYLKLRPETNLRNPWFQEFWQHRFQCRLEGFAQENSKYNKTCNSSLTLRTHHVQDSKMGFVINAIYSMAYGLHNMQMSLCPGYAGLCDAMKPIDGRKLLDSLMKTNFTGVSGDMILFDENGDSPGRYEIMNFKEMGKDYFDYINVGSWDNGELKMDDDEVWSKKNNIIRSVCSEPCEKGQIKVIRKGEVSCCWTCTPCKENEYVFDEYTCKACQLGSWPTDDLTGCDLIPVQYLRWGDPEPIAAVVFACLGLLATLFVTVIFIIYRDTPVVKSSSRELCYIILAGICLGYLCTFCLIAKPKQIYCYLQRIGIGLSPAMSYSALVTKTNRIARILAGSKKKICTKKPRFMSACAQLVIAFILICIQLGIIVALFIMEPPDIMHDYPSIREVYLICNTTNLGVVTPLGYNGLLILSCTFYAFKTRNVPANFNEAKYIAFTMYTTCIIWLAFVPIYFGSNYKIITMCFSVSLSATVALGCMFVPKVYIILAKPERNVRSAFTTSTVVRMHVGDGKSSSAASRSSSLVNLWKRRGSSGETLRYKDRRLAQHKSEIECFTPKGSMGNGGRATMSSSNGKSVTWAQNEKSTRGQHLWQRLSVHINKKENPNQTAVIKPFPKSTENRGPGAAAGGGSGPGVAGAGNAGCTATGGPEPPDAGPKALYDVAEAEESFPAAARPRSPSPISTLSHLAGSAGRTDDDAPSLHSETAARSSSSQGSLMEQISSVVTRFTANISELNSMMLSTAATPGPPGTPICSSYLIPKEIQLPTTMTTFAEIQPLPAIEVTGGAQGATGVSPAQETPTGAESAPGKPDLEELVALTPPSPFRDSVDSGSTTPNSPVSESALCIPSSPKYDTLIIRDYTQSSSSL
UniProt P31422, 23-879: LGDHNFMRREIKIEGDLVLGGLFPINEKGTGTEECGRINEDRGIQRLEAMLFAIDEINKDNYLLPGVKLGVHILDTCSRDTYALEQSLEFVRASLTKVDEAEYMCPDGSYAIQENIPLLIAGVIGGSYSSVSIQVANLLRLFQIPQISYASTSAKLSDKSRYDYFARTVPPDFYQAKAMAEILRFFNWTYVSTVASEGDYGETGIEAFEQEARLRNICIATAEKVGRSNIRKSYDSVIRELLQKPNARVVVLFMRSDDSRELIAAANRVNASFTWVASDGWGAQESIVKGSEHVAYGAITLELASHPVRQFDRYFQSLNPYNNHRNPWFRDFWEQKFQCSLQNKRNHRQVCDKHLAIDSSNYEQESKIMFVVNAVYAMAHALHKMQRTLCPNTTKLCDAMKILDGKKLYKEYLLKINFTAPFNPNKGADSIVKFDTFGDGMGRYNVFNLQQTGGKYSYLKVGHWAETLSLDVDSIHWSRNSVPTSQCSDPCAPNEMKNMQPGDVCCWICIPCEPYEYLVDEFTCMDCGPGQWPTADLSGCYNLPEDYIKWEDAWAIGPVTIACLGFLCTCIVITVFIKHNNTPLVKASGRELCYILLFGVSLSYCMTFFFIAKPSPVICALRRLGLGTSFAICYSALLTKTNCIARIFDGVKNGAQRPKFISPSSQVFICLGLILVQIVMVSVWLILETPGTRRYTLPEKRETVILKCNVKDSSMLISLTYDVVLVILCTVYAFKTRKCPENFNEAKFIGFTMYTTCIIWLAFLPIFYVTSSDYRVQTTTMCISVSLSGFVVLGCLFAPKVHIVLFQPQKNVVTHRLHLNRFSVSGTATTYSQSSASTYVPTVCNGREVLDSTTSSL

In experiment [1] the target is rat mGlu5 (Rattus norvegicus, UniProt P31424). Kind of experiment: Calcium mobilization mGlu5 assay. The following applies: selectivity mGlu3 vs mGlu5. It counts as cell-based.
Experiment [2] deals with rat mGlu3 (Rattus norvegicus, UniProt P31422). The following applies: LLE (ligand-lipophilicity efficiency) = pIC50 – cLogP.

As for `C[C@@H]1CN(c2cnccc2F)C(=O)c2cc(COc3ccc(Cl)cn3)nn21` [Compound 107], the “fold vs mGlu5” value in experiment [1] is on record as over 62 fold. The same compound registered an LLE in experiment [2] of 4.06.
Consider `C[C@@H]1CN(c2cccc(F)c2)C(=O)c2cc(COc3ccc(F)cn3)nn21` [Compound 56], for which the LLE in experiment [2] is 3.66.
On to `C[C@@H]1CN(c2ccccn2)C(=O)c2cc(COc3ccc(Cl)cn3)nn21` [Compound 100], for which the “fold vs mGlu5” value in experiment [1] is over 91 fold. In experiment [2], this compound showed an LLE of 3.91.
In experiment [2], `C[C@@H]1CN(c2ccccc2Cl)C(=O)c2cc(COc3ccc(F)cn3)nn21` [Compound 57] had an LLE of 3.28.
As to `C[C@@H]1CN(c2cc(F)ccc2F)C(=O)c2cc(COc3ccc(F)cn3)nn21` [Compound 67], the “fold vs mGlu5” value in experiment [1] was over 81 fold. For the same compound, the LLE in experiment [2] worked out at 3.75.
Take `C[C@@H]1CN(c2ccc(F)cc2)C(=O)c2cc(COc3ccc(F)cc3)nn21` [Compound 24]: the LLE in experiment [2] is recorded as 2.38.
Take `C[C@@H]1CN(c2ccc(F)cc2)C(=O)c2cc(COc3ccc(F)cn3)nn21` [Compound 47]: the “fold vs mGlu5” value in experiment [1] is ~20 fold and >18 fold. The compound also showed an LLE in experiment [2] of 3.21.
`Cc1cccc(N2C[C@@H](C)n3nc(COc4ccc(F)cn4)cc3C2=O)c1` [Compound 61] returned an LLE in experiment [2] of 3.44.
As for `C[C@@H]1CN(c2cccnc2)C(=O)c2cc(COc3ccc(Cl)cn3)nn21` [Compound 101], the “fold vs mGlu5” value in experiment [1] is reported as over 49 fold. The same compound showed an LLE in experiment [2] of 4.06.
Regarding `C[C@@H]1CN(c2cccc(Cl)c2)C(=O)c2cc(COc3ccc(F)cn3)nn21` [Compound 58], the LLE in experiment [2] was 3.27.
In the case of `C[C@@H]1CN(c2ccccc2F)C(=O)c2cc(COc3ccc(F)cn3)nn21` [Compound 55], in experiment [1], the “fold vs mGlu5” value is given as over 61 fold. The same compound gave an LLE in experiment [2] of 3.73.
Consider `C[C@@H]1CN(c2cccc(F)c2F)C(=O)c2cc(COc3ccc(F)cn3)nn21` [Compound 66], for which the LLE in experiment [2] turned out to be 3.57.
`C[C@@H]1CN(c2ccc(F)cc2)C(=O)c2cc(COc3ccc(Cl)cn3)nn21` [Compound 48] had an LLE in experiment [2] of 2.65.
`CCOc1ccc(OCc2cc3n(n2)[C@H](C)CN(c2ccc(F)cc2)C3=O)cc1` [Compound 38]: the “fold vs mGlu5” value in experiment [1] is given as over 25 fold. In experiment [2], this compound displayed an LLE of 1.70.
The matching figures for `C[C@@H]1CN(c2cncc(F)c2)C(=O)c2cc(COc3ccc(Cl)cn3)nn21` [Compound 108]: over 62 fold and 4.06.
In the case of `C[C@@H]1CN(c2c(F)cccc2F)C(=O)c2cc(COc3ccc(F)cn3)nn21` [Compound 68], the LLE in experiment [2] turned out to be 3.58.

The values above are taken from publication PMC4809247 (Journal of medicinal chemistry, 2015).
